Laboratory results reported in ChEMBL document CHEMBL3621128, “Synthesis and biological evaluation of 2-alkyl-2-methoxymethyl-salvinorin ethers as selective κ-opioid receptor agonists” (2015).

By UniProt entry, the sequences of proteins in these tests, tags left out. Where a name states a change or a piece, a line headed by the entry shows the natural chain unless it says otherwise.
UniProt P32300, whole entry, looked up: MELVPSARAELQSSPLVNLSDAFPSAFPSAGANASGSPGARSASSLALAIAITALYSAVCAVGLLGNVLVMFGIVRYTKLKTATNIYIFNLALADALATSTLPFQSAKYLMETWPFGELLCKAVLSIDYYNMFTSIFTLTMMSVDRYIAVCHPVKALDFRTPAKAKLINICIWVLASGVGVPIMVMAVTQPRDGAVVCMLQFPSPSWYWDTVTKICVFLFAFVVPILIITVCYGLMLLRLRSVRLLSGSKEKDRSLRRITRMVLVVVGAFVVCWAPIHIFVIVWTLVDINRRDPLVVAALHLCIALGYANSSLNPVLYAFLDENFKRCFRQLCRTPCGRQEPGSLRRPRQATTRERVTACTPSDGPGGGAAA
UniProt P33535, whole entry, looked up: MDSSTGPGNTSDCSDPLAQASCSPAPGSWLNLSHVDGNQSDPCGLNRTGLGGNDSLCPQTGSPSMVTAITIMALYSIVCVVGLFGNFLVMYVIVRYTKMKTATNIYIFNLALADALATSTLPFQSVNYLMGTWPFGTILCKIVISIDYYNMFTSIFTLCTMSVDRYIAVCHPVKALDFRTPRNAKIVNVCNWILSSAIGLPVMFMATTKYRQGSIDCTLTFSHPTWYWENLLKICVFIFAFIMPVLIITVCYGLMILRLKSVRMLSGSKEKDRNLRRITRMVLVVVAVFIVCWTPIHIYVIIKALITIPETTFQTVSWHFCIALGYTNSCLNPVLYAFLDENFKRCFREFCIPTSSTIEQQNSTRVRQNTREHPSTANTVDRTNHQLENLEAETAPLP
UniProt P41145: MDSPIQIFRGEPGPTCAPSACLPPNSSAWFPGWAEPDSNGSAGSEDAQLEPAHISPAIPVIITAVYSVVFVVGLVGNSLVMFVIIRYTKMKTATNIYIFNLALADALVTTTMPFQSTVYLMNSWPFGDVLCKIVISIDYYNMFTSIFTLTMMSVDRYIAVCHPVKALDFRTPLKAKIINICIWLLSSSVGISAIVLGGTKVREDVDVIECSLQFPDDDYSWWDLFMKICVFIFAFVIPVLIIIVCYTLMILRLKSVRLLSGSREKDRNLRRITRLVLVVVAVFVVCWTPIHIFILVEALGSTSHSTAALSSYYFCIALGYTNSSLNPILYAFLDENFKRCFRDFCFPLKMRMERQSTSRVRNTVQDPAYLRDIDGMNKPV

Assays:
[1] = molecular target: Delta-type opioid receptor (Mus musculus) (UniProt P32300); assay: Displacement of [3H]diprenorphine from FLAG-tagged mouse delta opioid receptor expressed in CHO cell membranes Displacement of [3H]diprenorphine from human kappa opioid receptor expressed in CHO cell membranes at 3 uM
[2] = molecular target: Mu-type opioid receptor (Rattus norvegicus) (UniProt P33535); assay: Displacement of [3H]diprenorphine from rat mu opioid receptor expressed in CHO cell membranes Displacement of [3H]diprenorphine from human kappa opioid receptor expressed in CHO cell membranes at 3 uM
[3] = molecular target: Kappa-type opioid receptor (Homo sapiens) (UniProt P41145); assay: Displacement of [3H]diprenorphine from human kappa opioid receptor expressed in CHO cell membranes at 3 uM
[4] = molecular target: Kappa-type opioid receptor (Homo sapiens) (UniProt P41145); assay: Agonist activity at human kappa opioid receptor expressed in CHO cell membranes assessed as stimulation of [35S]GTPgammaS binding relative to U50,488H

| SMILES | inhibition [1] | inhibition [2] | inhibition [3] | Emax [4] |
| --- | --- | --- | --- | --- |
| COC[C@@]1(CCCCCI)C[C@@H](C(=O)OC)[C@]2(C)CC[C@H]3C(=O)O[C@H](c4ccoc4)C[C@]3(C)[C@H]2C1=O | > 50% |  |  |  |
| COC(=O)[C@@H]1C[C@H](OC(C)=O)C(=O)[C@H]2[C@@]1(C)CC[C@H]1C(=O)O[C@H](c3ccoc3)C[C@]21C | > 50% | > 50% |  |  |
| COC[C@@]1(CCOCCI)C[C@@H](C(=O)OC)[C@]2(C)CC[C@H]3C(=O)O[C@H](c4ccoc4)C[C@]3(C)[C@H]2C1=O |  |  | > 50% |  |
| COC[C@@]1(CCOCCI)C[C@@H](C(=O)OC)[C@]2(C)CC[C@@H]3C(=O)O[C@H](c4ccoc4)C[C@]3(C)[C@H]2C1=O |  |  | > 50% |  |
| COC(=O)[C@@H]1C[C@H](O)C(=O)[C@H]2[C@@]1(C)CC[C@H]1C(=O)O[C@H](c3ccoc3)C[C@]21C | > 50% | > 50% | > 50% | 115% |
| COC[C@@]1(CCCCCI)C[C@@H](C(=O)OC)[C@]2(C)CC[C@@H]3C(=O)O[C@H](c4ccoc4)C[C@]3(C)[C@H]2C1=O | > 50% |  |  |  |
| COC[C@@]1(C)C[C@@H](C(=O)OC)[C@]2(C)CC[C@H]3C(=O)O[C@H](c4ccoc4)C[C@]3(C)[C@H]2C1=O | > 50% |  |  |  |
| COC[C@@]1(C)C[C@@H](C(=O)OC)[C@]2(C)CC[C@@H]3C(=O)O[C@H](c4ccoc4)C[C@]3(C)[C@H]2C1=O | > 50% |  |  |  |
